Test results reported in article PMC6344423, “Opposing Actions of Adrenocorticotropic Hormone and Glucocorticoids on UCP1-Mediated Respiration in Brown Adipocytes” (Frontiers in Physiology, 2019).

System: Ucp1 gene expression in primary brown adipocytes of Ucp1^ki/ki mice
Test: Luciferase assay, FLUC activity as surrogate for Ucp1 expression
Type: cell-based, mouse
Settings: overnight stimulation, normalized to total protein content, n = 3, Figure 1D
Method: After overnight stimulation of primary brown adipocytes of Ucp1^ki/ki mice luciferase activity was assayed using a commercial kit system (Luciferase Assay System Freezer Pack E4030, Promega GmbH). Primary cells were lysed in 1x reporter lysis buffer by shaking for 20 min at room temperature. 10 μl lysate was mixed with 50 μl luciferase assay substrate solution, and the mixture was measured by FB12 in a luminometer (Single Tube Luminometer, Titertek-Berthold GmbH). Bioluminescence readouts were normalized to total protein content.
We then measured FLUC activity in primary brown adipocytes from Ucp1^ki/ki reporter gene mice to determine the effect of the GsPCR ligands on Ucp1 gene expression in response to overnight stimulation. As the expression of Fluc in these cells is driven by Ucp1promoter, FLUC activity served as a surrogate for Ucp1 expression. […] Based on the pronounced and relatively preferential stimulatory effect of ACTH on UCP1-mediated respiration we chose the ACTH to further investigate its thermogenic properties.

## CGRP: calcitonin gene-related peptide, ligand for CALCRL
  FLUC (luciferase) activity as surrogate for Ucp1 expression: only had minor effects
